Source: publication PMC6858497 (The Journal of physiology, 2019)

Chains of the proteins cited; added tags and fusions are not shown. Residues count along the entry.
UniProt Q00960, 27-1482: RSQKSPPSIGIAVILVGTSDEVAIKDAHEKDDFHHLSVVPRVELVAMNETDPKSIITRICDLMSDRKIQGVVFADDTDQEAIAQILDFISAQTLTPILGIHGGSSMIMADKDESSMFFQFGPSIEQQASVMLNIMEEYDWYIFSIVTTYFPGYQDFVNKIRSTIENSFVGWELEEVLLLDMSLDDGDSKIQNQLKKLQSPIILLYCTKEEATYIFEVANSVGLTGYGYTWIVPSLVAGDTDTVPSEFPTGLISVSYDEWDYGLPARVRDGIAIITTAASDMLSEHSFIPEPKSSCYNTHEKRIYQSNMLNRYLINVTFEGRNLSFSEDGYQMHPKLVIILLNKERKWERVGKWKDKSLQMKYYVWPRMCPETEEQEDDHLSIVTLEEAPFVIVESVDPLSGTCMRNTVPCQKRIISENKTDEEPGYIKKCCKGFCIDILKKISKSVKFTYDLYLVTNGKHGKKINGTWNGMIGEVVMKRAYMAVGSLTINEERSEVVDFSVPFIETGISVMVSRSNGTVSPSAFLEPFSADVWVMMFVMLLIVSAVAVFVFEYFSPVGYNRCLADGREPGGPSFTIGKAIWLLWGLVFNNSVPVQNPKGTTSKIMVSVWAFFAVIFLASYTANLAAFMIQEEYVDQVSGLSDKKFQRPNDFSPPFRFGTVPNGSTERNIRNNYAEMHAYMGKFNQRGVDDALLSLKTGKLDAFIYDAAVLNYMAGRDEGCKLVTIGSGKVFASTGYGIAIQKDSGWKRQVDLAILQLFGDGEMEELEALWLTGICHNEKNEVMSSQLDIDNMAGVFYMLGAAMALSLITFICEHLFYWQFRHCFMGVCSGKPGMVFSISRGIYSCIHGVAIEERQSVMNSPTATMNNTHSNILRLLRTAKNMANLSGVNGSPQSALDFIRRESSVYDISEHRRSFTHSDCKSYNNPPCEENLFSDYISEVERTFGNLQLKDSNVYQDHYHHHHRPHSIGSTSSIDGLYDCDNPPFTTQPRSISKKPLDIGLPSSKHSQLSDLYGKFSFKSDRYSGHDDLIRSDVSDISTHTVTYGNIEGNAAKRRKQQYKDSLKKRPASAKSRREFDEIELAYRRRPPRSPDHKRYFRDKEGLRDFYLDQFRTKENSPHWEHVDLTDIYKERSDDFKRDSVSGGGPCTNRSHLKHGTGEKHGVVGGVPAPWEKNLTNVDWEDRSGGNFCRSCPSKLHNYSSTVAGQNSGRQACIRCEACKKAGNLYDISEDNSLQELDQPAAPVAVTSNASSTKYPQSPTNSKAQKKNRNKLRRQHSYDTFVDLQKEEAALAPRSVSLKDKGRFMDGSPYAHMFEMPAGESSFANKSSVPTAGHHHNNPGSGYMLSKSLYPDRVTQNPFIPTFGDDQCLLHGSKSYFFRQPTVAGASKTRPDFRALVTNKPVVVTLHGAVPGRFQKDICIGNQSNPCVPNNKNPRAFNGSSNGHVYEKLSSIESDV
UniProt Q62645, 28-1323: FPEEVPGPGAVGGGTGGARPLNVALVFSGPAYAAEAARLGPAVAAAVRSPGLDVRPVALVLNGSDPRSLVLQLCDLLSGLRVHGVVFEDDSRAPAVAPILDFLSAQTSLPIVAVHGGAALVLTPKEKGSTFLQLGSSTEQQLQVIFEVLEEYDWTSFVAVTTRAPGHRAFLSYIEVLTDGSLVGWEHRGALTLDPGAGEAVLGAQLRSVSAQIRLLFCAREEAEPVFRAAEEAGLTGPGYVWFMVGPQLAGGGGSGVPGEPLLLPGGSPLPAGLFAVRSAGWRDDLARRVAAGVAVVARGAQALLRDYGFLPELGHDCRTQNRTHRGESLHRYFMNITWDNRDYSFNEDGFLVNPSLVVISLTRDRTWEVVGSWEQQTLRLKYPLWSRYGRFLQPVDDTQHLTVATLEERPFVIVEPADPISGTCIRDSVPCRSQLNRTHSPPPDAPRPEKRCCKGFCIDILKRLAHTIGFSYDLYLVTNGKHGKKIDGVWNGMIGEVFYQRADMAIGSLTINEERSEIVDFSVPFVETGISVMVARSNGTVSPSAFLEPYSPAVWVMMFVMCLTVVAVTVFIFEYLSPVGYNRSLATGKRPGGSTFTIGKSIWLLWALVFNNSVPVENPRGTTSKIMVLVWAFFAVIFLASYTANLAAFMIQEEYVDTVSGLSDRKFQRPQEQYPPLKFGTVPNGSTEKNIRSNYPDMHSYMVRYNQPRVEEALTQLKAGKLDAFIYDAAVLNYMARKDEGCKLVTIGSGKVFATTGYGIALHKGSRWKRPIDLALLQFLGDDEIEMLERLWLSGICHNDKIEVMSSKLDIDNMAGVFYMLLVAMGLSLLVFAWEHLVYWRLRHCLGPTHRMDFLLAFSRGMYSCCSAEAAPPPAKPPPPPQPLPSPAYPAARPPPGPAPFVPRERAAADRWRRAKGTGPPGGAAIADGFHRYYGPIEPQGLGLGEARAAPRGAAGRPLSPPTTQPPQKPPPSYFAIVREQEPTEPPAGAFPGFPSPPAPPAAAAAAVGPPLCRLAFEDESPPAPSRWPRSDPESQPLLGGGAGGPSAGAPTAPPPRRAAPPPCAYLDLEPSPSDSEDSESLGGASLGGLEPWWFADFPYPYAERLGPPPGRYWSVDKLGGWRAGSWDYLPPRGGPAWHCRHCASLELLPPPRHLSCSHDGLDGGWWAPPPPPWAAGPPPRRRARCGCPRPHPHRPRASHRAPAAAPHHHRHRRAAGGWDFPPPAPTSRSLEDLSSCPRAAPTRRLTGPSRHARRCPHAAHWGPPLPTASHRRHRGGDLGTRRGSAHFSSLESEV

How the values were obtained:
Experiment in all cases: Two-electrode voltage-clamp recordings, Xenopus oocytes
Format in all cases: cell-based
Settings in all cases: agonist concentration-response, isoform 1a
GluN1–1a/2B = GluN1–1a/2B (Rattus norvegicus, UniProt P35439+Q00960)
GluN1–1a/2BC1/2DC2 = GluN1–1a/2BC1/2DC2 (Rattus norvegicus, UniProt P35439+Q00959+Q00960+Q62645, A876H/F846L/G856D/H848F/K857R/M851T/M860L/Q845K/R869K/V861L/V866F)
GluN1–1a/2D = GluN1–1a/2D (Rattus norvegicus, UniProt P35439+Q62645)

Structure (SMILES): NCC(=O)O [glycine]
- nH (Hill coefficient) (GluN1–1a/2B): 1.8
- nH (Hill coefficient) (GluN1–1a/2BC1/2DC2): 1.6
- nH (Hill coefficient) (GluN1–1a/2D): 1.6
